Assay results published in patent US20260285856A1, “A 1,5-DIHYDRO-4H-PYRROLO[3,2-C] PYRIDIN-4-ONE FOR USE IN THE TREATMENT OF CANCER” (ANTARES THERAPEUTICS, INC., priority 2023, published 2026).

Amino acid sequences for entries named in this document (tags omitted). Chains listed by the source or under a name are the forms on record and can include a tag or linker. Residues count along the entry.
UniProt P00533, with tags, fused parts or gaps INS769ASV: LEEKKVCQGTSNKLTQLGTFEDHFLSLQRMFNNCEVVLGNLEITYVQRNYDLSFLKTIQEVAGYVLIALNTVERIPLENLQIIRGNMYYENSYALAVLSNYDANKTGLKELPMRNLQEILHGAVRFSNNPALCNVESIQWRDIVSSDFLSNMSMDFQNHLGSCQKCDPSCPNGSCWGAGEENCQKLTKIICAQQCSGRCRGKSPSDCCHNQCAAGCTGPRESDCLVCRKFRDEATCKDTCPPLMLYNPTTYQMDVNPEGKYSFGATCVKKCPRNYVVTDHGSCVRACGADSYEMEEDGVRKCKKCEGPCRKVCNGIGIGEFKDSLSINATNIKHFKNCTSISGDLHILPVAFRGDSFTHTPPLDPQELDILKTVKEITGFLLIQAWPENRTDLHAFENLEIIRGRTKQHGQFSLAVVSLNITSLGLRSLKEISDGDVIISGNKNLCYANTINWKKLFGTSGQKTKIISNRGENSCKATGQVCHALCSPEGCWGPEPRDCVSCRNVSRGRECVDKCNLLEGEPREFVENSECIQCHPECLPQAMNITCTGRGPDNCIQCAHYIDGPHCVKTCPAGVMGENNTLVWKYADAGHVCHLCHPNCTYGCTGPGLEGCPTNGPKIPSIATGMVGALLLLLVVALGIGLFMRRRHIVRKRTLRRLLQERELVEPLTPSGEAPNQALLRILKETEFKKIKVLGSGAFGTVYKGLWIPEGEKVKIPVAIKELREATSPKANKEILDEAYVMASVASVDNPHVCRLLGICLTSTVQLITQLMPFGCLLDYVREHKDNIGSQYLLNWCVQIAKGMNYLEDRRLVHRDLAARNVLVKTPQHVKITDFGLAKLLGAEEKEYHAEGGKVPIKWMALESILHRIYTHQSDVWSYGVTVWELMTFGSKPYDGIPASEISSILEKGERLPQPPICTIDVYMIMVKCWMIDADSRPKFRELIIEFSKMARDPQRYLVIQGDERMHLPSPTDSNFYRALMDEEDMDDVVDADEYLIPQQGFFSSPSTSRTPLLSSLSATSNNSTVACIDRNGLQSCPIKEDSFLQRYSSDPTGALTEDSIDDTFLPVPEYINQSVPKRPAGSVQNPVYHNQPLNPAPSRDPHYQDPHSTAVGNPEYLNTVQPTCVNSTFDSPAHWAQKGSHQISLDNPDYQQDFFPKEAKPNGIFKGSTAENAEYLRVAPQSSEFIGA
UniProt P00533, 25-1210 limits assumed: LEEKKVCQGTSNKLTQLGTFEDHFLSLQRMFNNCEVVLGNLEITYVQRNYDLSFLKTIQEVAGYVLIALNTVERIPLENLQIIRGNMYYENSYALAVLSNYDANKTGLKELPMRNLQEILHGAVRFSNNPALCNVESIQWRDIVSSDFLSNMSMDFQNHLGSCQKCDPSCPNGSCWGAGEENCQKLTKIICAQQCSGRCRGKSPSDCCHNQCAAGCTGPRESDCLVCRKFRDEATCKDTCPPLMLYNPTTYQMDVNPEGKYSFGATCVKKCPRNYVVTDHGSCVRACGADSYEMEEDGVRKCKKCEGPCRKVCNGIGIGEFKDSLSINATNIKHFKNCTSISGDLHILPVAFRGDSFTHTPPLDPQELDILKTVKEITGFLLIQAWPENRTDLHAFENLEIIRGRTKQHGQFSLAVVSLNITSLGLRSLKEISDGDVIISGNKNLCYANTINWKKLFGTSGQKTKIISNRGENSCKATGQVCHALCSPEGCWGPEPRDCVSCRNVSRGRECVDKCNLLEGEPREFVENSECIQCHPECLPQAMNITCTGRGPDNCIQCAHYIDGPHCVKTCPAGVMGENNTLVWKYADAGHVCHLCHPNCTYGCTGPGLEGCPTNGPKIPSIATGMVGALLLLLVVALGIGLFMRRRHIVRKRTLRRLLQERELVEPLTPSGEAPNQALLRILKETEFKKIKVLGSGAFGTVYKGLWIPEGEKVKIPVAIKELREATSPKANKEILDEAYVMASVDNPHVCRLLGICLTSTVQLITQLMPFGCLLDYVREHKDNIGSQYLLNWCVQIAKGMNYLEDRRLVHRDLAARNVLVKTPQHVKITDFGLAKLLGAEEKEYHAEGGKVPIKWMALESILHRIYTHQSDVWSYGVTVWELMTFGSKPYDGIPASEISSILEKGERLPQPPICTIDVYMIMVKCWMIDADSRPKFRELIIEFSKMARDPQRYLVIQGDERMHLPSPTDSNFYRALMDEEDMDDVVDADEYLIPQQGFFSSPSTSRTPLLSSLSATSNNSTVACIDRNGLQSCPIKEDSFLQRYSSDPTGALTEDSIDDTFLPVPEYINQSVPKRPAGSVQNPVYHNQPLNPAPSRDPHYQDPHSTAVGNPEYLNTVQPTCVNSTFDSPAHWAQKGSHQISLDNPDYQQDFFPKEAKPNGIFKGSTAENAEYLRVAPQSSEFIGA
UniProt P00533, with tags, fused parts or gaps INS770NPG limits assumed: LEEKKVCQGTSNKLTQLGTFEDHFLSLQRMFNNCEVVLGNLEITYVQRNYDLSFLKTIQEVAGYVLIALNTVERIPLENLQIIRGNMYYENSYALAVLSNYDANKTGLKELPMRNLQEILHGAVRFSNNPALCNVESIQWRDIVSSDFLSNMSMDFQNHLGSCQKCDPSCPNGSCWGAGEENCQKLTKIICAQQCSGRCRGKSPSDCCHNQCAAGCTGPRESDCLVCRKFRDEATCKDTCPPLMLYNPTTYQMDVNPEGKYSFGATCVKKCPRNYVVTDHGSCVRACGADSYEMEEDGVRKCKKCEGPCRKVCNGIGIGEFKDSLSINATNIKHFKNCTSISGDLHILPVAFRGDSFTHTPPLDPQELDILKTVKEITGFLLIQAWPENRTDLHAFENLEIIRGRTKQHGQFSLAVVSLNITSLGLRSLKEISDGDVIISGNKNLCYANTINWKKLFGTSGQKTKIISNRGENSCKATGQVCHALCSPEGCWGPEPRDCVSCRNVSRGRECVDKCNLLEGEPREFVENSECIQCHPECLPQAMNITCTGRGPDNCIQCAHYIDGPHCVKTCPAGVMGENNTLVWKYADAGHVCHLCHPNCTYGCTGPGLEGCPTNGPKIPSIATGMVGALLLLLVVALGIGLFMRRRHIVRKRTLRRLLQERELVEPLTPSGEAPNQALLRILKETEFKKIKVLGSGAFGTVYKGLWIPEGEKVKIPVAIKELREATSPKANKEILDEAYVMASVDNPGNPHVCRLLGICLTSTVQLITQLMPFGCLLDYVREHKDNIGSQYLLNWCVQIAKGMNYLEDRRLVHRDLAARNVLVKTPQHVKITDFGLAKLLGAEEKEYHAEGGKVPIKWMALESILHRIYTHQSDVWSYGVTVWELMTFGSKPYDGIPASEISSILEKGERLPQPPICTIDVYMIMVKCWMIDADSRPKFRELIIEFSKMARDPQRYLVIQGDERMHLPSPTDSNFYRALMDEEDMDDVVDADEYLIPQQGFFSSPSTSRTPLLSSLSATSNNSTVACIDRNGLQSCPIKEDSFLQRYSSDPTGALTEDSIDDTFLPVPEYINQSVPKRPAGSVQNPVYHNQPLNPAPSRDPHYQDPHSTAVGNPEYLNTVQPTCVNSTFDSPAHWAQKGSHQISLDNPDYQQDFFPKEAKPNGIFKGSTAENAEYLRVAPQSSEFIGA
UniProt P00533, with tags, fused parts or gaps INS770SVD limits assumed: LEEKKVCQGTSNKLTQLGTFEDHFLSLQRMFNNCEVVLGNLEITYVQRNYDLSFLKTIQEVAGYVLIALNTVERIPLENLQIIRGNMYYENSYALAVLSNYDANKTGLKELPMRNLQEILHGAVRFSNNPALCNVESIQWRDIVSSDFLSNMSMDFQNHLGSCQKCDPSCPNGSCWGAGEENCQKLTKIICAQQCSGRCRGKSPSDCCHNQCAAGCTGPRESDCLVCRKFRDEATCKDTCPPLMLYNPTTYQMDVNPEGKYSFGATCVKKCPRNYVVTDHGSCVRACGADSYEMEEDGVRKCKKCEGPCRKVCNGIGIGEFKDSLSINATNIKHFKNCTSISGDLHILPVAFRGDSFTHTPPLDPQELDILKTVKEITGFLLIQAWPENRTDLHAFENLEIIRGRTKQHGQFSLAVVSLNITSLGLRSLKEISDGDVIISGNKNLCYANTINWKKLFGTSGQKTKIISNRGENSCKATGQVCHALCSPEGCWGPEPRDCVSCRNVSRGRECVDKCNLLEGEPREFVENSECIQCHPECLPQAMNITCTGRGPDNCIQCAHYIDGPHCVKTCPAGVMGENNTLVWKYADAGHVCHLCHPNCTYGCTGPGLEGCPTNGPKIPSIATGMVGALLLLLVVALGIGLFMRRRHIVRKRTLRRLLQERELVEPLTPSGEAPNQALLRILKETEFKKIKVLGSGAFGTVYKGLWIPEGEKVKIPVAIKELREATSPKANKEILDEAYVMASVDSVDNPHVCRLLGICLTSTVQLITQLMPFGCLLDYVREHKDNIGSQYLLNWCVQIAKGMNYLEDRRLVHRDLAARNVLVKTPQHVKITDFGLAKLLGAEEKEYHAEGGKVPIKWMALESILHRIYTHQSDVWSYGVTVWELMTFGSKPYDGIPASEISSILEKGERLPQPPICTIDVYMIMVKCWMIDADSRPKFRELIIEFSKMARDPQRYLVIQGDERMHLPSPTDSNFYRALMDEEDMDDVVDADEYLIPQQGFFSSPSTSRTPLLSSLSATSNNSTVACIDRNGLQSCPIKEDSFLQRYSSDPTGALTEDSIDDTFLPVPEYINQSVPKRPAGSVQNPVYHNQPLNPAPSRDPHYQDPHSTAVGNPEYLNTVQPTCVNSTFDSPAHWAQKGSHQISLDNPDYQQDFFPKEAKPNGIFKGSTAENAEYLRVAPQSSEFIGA

Legend:
[1] = target: EGFR exon 20 ASV Ins V769_D770 (Homo sapiens, UniProt P00533, INS769ASV); experiment: Ba/F3 cell viability (CellTiter-Glo), EGFR exon 20 ASV insertion; settings: read-out: BaF3 ASV IC50, Ba/F3 cells expressing EGFR exon 20 ASV Ins V769_D770, 72 hours
[2] = target: EGFR exon 20 SVD Ins D770_N771 (Homo sapiens, UniProt P00533, INS770SVD); experiment: Ba/F3 cell viability (CellTiter-Glo), EGFR exon 20 SVD insertion; settings: read-out: BaF3 SVD IC50, Ba/F3 cells expressing EGFR exon 20 SVD Ins D770_N771, 72 hours
[3] = target: EGFR exon 20 NPG Ins D770_N771 (Homo sapiens, UniProt P00533, INS770NPG); experiment: Ba/F3 cell viability (CellTiter-Glo), EGFR exon 20 NPG insertion; settings: read-out: BaF3 NPG IC50, Ba/F3 cells expressing EGFR exon 20 NPG Ins D770_N771, 72 hours
EGFR WT = EGFR WT (Homo sapiens, UniProt P00533); experiment: Ba/F3 cell viability (CellTiter-Glo), EGFR WT; settings: read-out: BaF3 WT IC50, Ba/F3 cells expressing EGFR WT, supplemental EGF, 72 hours
[4] = target: EGFR phosphorylation (pEGFR) in CUTO14 cells (Homo sapiens, UniProt P00533, INS769ASV); experiment: EGFR phosphorylation (pEGFR) AlphaLISA in CUTO14 cells; settings: read-out: CUTO14 IC50 (pEGFR), 2 hours

COc1c(Cl)cccc1Nc1c(-c2ccncc2C#C[C@]2(C)CCCN2C(=O)/C=C/CN(C)C)[nH]c2cc[nH]c(=O)c12
IC50 [1]: 100 to 1000 nM
IC50 [2]: 100 to 1000 nM
IC50 [3]: < 100 nM
IC50 (EGFR WT): > 1000 nM
IC50 [4]: < 100 nM
